We go through one molecule from patent publication US20250346584A1, “NOVEL KAPPA OPIOID LIGANDS” (The Scripps Research Institute, priority 2012, published 2025).

Chains of the proteins cited; added tags and fusions are not shown. Lines headed by an entry give the natural chain unless they say otherwise; changes in a name come on top.
UniProt P41145: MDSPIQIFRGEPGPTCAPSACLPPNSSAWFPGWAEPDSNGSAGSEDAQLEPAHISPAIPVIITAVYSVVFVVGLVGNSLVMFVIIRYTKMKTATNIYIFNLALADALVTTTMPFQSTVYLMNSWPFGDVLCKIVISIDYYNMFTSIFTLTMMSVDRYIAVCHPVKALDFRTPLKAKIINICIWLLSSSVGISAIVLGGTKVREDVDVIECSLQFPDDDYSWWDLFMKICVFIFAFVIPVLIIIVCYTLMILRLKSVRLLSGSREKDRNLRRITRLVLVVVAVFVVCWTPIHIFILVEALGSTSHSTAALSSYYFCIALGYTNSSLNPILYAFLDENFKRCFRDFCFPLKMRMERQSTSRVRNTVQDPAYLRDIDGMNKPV

SMILES strings stand for the structures.

This experiment deals with kappa opioid receptor (OPRK1) (Homo sapiens (Human), UniProt P41145). Description: OPRK1 antagonist assay (b-arrestin-2-TEV / b-lactamase reporter cell line, EC80 U-50488 challenge). Format: cell-based. The note with it: read-out: IC50 nM (% inhib if other than 50%); antagonist mode vs EC80 U-50488; NA = not active at concentrations up to 10 μM.

A word on the IC50: it is the concentration at which inhibition is half-maximal. `Cc1ccc2nc(N3CCC(NC4CCCCC4O)CC3)c(-c3nc(C)no3)cc2c1` (stereo not shown) [compound 248]: the IC50 turned out to be 11 nM.
